# From patent US6794489B2, “Compositions and methods for treatment of sexual dysfunction” (Palatin Technologies, Inc., priority 1999, dated 2004)
# Chains of the proteins cited; added tags and fusions are not shown. Lines headed by an entry give the natural chain unless they say otherwise; changes in a name come on top.
# UniProt Q64326: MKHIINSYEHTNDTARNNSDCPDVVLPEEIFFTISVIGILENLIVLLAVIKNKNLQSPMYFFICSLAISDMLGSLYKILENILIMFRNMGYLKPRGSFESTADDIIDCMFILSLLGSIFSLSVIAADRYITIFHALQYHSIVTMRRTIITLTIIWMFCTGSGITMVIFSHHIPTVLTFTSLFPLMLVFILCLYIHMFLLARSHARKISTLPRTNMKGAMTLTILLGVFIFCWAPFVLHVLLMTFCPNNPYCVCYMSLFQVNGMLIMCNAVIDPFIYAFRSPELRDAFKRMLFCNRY
# UniProt P32245, whole entry: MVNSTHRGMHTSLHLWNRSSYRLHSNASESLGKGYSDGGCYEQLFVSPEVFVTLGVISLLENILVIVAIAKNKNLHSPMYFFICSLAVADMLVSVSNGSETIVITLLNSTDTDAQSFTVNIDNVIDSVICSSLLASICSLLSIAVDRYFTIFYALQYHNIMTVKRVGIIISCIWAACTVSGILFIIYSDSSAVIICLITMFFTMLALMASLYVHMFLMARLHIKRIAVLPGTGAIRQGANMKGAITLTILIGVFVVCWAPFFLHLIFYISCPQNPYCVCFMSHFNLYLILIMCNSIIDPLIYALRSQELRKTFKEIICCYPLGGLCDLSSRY
# What was measured:
# MC2-R = target: T1, MC2-R (Mus musculus, UniProt Q64326); assay: Competitive binding assay with 125I-NDP-MSH, MC2 receptors
# T1 construct: Y1 cells were used as the source of MC2 receptors; endogenous in cells; host or cells: Y1 cells
# Sprague Dawley rats = assay: Induction of penile erection by intravenous injection; conditions: male, rat, in vivo, 0.5 h
# MC4-R = MC4-R (Homo sapiens, UniProt P32245); assay: Agonist activity by cAMP detection in HEK 293 cells; format: cell-based; design: expressed in transfected cells; host or cells: HEK 293 cells, stably transfected; conditions: test compound 1 × 10^−7M
Compound,Ki (MC2-R),Therapeutic window (desired therapeutic effect to observed adverse effects) (Sprague Dawley rats),cAMP CONCENTRATION (MC4-R)
"CCCCC(NC(C)=O)C(=O)NC1CC(=O)NCCCCC(C(=O)O)NC(=O)C(Cc2c[nH]c3ccccc23)NC(=O)C(CCCNC(=N)N)NC(=O)C(Cc2ccccc2)NC(=O)C(Cc2c[nH]cn2)NC1=O [Compound 1, Ac-Nle-cyclo(-Asp-His-D-Phe-Arg-Trp-Lys)-OH]",> 1000 nM,"> 1,000 fold",–
α-MSH,–,–,107.7 pmol/mL
